For one compound, IC50 results are on record in ChEMBL document CHEMBL5316303, “[1,2,4]Triazolo[3,4-b]benzothiazole Scaffold as Versatile Nicotinamide Mimic Allowing Nanomolar Inhibition of Different PARP Enzymes” (J Med Chem, 2023).

Amino acid sequences for entries named in this document (tags omitted).
UniProt Q460N5, whole entry: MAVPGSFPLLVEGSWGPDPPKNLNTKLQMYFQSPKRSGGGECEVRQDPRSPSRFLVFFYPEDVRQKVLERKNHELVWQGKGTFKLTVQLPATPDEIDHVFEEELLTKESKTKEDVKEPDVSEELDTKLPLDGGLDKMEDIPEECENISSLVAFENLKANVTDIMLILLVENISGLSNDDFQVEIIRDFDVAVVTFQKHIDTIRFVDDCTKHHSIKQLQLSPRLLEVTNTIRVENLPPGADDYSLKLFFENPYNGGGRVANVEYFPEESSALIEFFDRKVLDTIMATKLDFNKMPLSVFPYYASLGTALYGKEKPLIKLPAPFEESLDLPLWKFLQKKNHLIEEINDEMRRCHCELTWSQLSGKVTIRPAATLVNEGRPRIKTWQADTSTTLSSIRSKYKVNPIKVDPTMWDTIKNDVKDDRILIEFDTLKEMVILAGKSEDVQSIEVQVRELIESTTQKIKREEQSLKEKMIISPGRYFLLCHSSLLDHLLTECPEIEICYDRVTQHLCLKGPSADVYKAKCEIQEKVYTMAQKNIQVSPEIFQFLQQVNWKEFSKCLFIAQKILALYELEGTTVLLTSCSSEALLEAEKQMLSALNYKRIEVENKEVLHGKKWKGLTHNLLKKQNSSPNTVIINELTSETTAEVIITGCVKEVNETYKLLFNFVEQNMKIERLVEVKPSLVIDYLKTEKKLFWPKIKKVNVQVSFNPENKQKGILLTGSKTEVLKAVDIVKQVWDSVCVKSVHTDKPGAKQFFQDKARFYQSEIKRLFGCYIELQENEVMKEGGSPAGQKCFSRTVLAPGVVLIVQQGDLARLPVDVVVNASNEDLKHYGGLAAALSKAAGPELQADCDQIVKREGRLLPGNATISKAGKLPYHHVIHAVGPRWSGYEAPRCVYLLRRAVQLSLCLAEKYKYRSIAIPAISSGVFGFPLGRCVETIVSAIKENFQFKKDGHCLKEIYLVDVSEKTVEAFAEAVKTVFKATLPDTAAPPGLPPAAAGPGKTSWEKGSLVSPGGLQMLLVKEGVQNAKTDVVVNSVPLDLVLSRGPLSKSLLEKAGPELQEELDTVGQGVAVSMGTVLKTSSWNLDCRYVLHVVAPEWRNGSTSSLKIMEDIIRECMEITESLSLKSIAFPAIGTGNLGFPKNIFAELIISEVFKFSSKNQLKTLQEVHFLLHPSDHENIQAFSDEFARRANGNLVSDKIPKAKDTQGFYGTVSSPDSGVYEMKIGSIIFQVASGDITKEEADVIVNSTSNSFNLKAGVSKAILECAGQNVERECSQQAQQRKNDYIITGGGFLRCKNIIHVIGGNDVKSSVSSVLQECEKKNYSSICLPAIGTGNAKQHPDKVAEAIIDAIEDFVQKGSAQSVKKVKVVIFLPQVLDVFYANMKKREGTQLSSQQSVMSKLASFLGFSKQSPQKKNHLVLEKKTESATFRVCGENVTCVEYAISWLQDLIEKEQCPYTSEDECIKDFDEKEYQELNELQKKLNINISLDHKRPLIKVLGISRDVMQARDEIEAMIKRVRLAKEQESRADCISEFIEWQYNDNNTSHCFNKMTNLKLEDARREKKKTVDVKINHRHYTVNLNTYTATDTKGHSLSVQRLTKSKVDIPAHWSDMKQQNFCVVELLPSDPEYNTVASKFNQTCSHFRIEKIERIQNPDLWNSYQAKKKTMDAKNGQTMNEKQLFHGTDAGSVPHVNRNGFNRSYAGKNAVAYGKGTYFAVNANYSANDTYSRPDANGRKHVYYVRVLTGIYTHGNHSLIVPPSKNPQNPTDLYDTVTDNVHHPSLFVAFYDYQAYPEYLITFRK

For the assay, the target named is Protein mono-ADP-ribosyltransferase PARP14 (Homo sapiens, UniProt Q460N5). Kind of assay: Inhibition of N-terminal MBP tagged/C-terminal PARP14 (unknown origin) expressed in Escherichia coli in presence of NAD+.

The structures appear in SMILES notation.

The term IC50 denotes the concentration at which inhibition is half-maximal. For the compound `Cc1ccc2c(c1)sc1nncn12`, the IC50 stood at 1200 nM.
